Measured affinities in a library of Ab-14 light chain variants

All variants were tested on one target, the spike HR2 peptide PDVDLGDISGINAS (SARS-CoV-2).

The variants keep the heavy chain, the linker and the frameworks of Ab-14 (scFv order VH, a (GGGGS)3 linker, VL).
VH: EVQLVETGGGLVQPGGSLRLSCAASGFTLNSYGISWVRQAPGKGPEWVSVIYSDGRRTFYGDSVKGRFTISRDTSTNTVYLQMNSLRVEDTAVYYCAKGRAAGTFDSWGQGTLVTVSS
VL: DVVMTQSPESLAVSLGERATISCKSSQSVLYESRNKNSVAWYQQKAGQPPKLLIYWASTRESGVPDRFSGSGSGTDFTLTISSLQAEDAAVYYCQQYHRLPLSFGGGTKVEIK

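The variants were designed computationally from a first round of random CDR variants and then made and measured. Group labels follow the data file (Ctrl: baseline library sampled from a position-specific scoring matrix, with some repeated check sequences; GP: Gaussian process model; Gen: genetic algorithm; a sequence that several methods proposed may carry one label only). Affinity was read by AlphaSeq, a pooled yeast mating assay with surface-displayed partners. Mating (16 h, 30 °C) was followed by selection of diploids and sequencing of their barcodes. A regression on co-assayed BCL2-family reference pairs converts the normalised counts of each replicate to an apparent Kd. There are six technical replicates.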

Each variant is given by its three light chain CDRs, as the data file delimits them; those of the parent are KSSQSVLYESRNKNSVA, WASTRES, QQYHRLPLS.
Numbers give log10(Kd / nM), so 0 is 1 nM and 3 is 1 µM. Smaller is tighter.
A mean of the replicates is given; it leaves out those without a signal.
An entry "n.d." has no value in the source: the pair was not observed among the diploids in that replicate. This suggests poor binding but is not conclusive.

CDR-L1	CDR-L2	CDR-L3	group	log10 Kd (nM) by replicate	mean log10 Kd (nM)	empty controls
KMSQSVLYEGRNKNSVA	WASTRES	QQYVRLPLS	Ctrl	0.90 / 1.33 / 0.77 / 0.93 / 1.63 / 1.20	1.13	1 of 18 (2.51)
KMSQSVLYESRNKNSVA	WASTRES	QQYHRLPNS	Ctrl	1.32 / 0.12 / 0.29 / 0.06 / 0.96 / 1.04	0.63	0 of 18
KWSQSNLYESRNKNSVA	NASTREV	QQYHRHPLS	Ctrl	n.d. / n.d. / n.d. / n.d. / 2.79 / n.d.	2.79	1 of 18 (3.12)
KSSQPVGYEERNKNSVA	EASTRES	QQYDRLPLS	Ctrl	0.04 / 0.10 / 0.01 / -0.32 / -0.10 / 0.27	0.00	1 of 18 (2.76)
KSSQSVLYESVNKNSVA	WASTREN	QQYHRLPLS	Ctrl	1.25 / 1.34 / 1.10 / 1.50 / 1.19 / 1.48	1.31	0 of 18
KGSPSDLAESRNKNSVA	WASTRES	QQYHRLPLS	Ctrl	1.56 / 1.14 / 2.31 / 0.89 / 2.08 / 1.46	1.57	0 of 18
KSSQSVLYESSNKNSVA	KASTREP	QQYHRLPLS	Ctrl	1.17 / 0.81 / 0.64 / 0.68 / 0.31 / 0.99	0.76	2 of 18 (2.65)
KSSQSVLYESRNHPSVA	WASTRYS	QCYHGLPLS	Ctrl	n.d. / n.d. / n.d. / n.d. / n.d. / n.d.	n.d.	0 of 18
GFSQSVLYESRNNNSVA	WASTRES	QQYHRLPLS	Ctrl	n.d. / n.d. / n.d. / n.d. / n.d. / n.d.	n.d.	0 of 18
KSSPSVDYESHNKNSVA	WASTRES	QQYHRLPLS	Ctrl	1.50 / 1.44 / 1.64 / 2.16 / 1.32 / 1.12	1.53	0 of 18
KSSQSVLYESRNKNSVA	KASTRES	QQYGRLPLS	Ctrl	0.60 / 0.70 / 0.81 / 0.76 / 0.88 / 0.68	0.74	0 of 18
KSWQSVLYESRNKNSVA	WASTRED	QQYHRLPLS	Ctrl	n.d. / n.d. / n.d. / n.d. / n.d. / n.d.	n.d.	0 of 18
KSSQQVLYESRNKNSVA	WASTRES	QQYHRAPLS	Ctrl	n.d. / n.d. / n.d. / n.d. / n.d. / n.d.	n.d.	0 of 18
KSDTSKLYESRNKNSVA	WASTRES	QQYHRLPLS	Ctrl	1.87 / 1.71 / 3.14 / 1.38 / 2.08 / 2.50	2.11	1 of 18 (2.36)
KSSQSVLYESRNKNSVA	KASTAES	QQPHRLMLD	Ctrl	n.d. / n.d. / n.d. / n.d. / n.d. / n.d.	n.d.	0 of 18
KFSQSVLYESRNKNSVA	WASLREV	QQYHRLPLY	Ctrl	2.28 / 1.30 / n.d. / n.d. / 1.62 / 2.61	1.95	1 of 18 (2.10)
KASQSVLYESRNKNSVA	WASTRES	QQMHRLPLS	Ctrl	n.d. / n.d. / 1.72 / 0.35 / 1.33 / 1.35	1.19	0 of 18
KFSQSVLGDSRNANSVA	GASTRES	QQYHRLPLS	Ctrl	0.96 / 0.34 / 0.33 / 0.29 / 0.45 / 0.57	0.49	1 of 18 (2.87)
KSSQSVLYESRNKNSVA	SASTRES	QQYHHLPLS	Ctrl	1.09 / 0.69 / 1.00 / 0.82 / 0.41 / 1.08	0.85	0 of 18
KSSQSVLPESRNNNAVA	WASTRES	QQYHRLPSS	Ctrl	n.d. / n.d. / n.d. / 2.51 / n.d. / n.d.	2.51	1 of 18 (3.06)
KSSQSVLYESREKNSVA	QGSTRES	QQYHRLPLS	Ctrl	0.92 / 0.76 / 0.79 / 0.49 / 0.53 / 0.74	0.71	1 of 18 (3.31)
KRTQSWLYESRNKNSVA	DASTRES	QQYHRLPLS	Ctrl	0.66 / 0.63 / 0.35 / 0.43 / 0.42 / 0.72	0.54	0 of 18
KSSQSVLNESKNKNSVA	WASIRES	VQYHRLPLI	Ctrl	1.57 / 1.38 / 1.45 / 0.97 / 1.60 / 1.55	1.42	0 of 18
KFSQSVLYESRNKNSVA	RATTRES	QQYHRLPLS	Ctrl	0.47 / 0.22 / -0.11 / -0.15 / -0.12 / 0.63	0.15	1 of 18 (2.21)
KSSQSVLNESANKNSVA	WASTRES	QQYHRLPLS	Ctrl	1.24 / 1.12 / 0.94 / 0.96 / 1.00 / 1.33	1.10	1 of 18 (2.49)
KFSQSVLYESRNKNSVA	NGSTRES	QQYHRLPLS	Ctrl+GP_Gen	-0.25 / -0.22 / -0.27 / -0.56 / -0.41 / -0.26; -0.14 / -0.53 / -0.18 / -0.35 / -0.29 / -0.27	-0.31	1 of 36 (2.95)
KSSQAVLYEYRNKNSVA	WASTRES	QQYHRSPLS	Ctrl	n.d. / n.d. / n.d. / n.d. / n.d. / n.d.	n.d.	0 of 18
EYSQSVLYESRNCNSVA	WASTRES	QQYHRLPLY	Ctrl	n.d. / n.d. / n.d. / n.d. / n.d. / n.d.	n.d.	0 of 18
KSADSVLYEHRNKNSVA	WGMQTEQ	QCYHRIPLS	Ctrl	n.d. / n.d. / n.d. / n.d. / n.d. / n.d.	n.d.	0 of 18
ISQQSAEYEGRQKKSVA	WASTREN	QQYHRLPLS	Ctrl	n.d. / n.d. / n.d. / n.d. / n.d. / n.d.	n.d.	0 of 18
KCSHSVLTSTRNGNSVA	WASTRED	QQYHQLPLS	Ctrl	2.93 / 1.03 / 1.56 / n.d. / 1.42 / 2.88	1.96	0 of 18
KSSQSVLYESRFTNSVA	RASTRES	QQYHRLPLS	Ctrl	n.d. / 2.47 / 2.38 / 2.41 / n.d. / 1.68	2.24	0 of 18
KFSQSNLYESRNTNSVA	DASTRES	QQYHRLPLS	Ctrl	0.26 / 0.07 / -0.46 / 0.17 / 0.15 / -0.14	0.01	0 of 18
KSSQSVLYESANKNSVA	WASTRES	QQHHRIPLS	Ctrl	n.d. / n.d. / n.d. / n.d. / n.d. / n.d.	n.d.	0 of 18
KISPSVLYESRNKNSVA	NASTREQ	QQYHRLPLS	Ctrl	-0.02 / -0.04 / -0.19 / -0.34 / -0.11 / 0.11	-0.10	1 of 18 (4.68)
KTTQSVLYESRNKNSVA	KASTRES	QQYHRLPLI	Ctrl	1.73 / 1.81 / 1.24 / 1.32 / 2.01 / 1.69	1.63	0 of 18
WMSQSVLYESMNKNSVS	WASTRVS	QQYHRLPWS	Ctrl	n.d. / n.d. / n.d. / n.d. / n.d. / 1.68	1.68	0 of 18
KRSQTVLYESRNKNSVA	MASTRES	QQYHRLPLS	Ctrl	2.41 / 1.25 / 1.79 / 1.66 / 1.50 / 1.72	1.72	1 of 18 (1.84)
KYSKSVLYESRNKNSVA	WASTRES	QQYHRLPLS	Ctrl	n.d. / n.d. / n.d. / n.d. / 1.88 / 1.43	1.65	0 of 18
KISQSVKYESRNKNSVA	WASTRES	QQYHVLPLL	Ctrl	1.31 / 0.37 / n.d. / 0.94 / 0.32 / 2.04	1.00	0 of 18
KFSQSVLYESRDKNSVA	WASTRES	QQYHRLPLS	Ctrl	0.66 / 0.47 / 0.57 / 0.79 / 0.40 / 0.87	0.63	2 of 18 (2.77)
KSSQSDLYEPRMKNSVA	WASTRES	QQYHRLPLS	Ctrl	0.33 / 0.37 / 0.53 / 1.20 / 0.45 / 1.34	0.70	1 of 18 (1.51)
KSSQSVLDESRNKNAVA	SASTRES	QQYHRLPLS	Ctrl	0.47 / 0.38 / 0.29 / 0.16 / 0.12 / 0.46	0.32	3 of 18 (3.01)
KSSQSVLYDSRNKNSVA	AASTRES	QQYARLPLS	Ctrl	0.03 / 0.01 / 0.00 / -0.04 / -0.10 / 0.02	-0.01	0 of 18
ANDQSVLYESRNKNSVA	WASTRES	QQYHRLPLS	Ctrl	n.d. / 1.31 / n.d. / 1.53 / n.d. / n.d.	1.42	0 of 18
KSSNSVLYESRNKNAVA	WASIREL	QQYHRLPLS	Ctrl	1.64 / n.d. / 0.54 / 1.67 / 1.80 / 2.55	1.64	0 of 18
KSSQSVLYEWRNKNSVA	WASTRES	QQYHRLPLS	Ctrl	n.d. / 2.44 / n.d. / 2.22 / n.d. / 2.55	2.40	0 of 18

5 of these entries, quoted again:

CDR-L1,CDR-L2,CDR-L3,group,log10 Kd (nM) by replicate,mean log10 Kd (nM),empty controls
KSSQSDLYEPRMKNSVA,WASTRES,QQYHRLPLS,Ctrl,0.33 / 0.37 / 0.53 / 1.20 / 0.45 / 1.34,0.70,1 of 18 (1.51)
KSSQSVLYESSNKNSVA,KASTREP,QQYHRLPLS,Ctrl,1.17 / 0.81 / 0.64 / 0.68 / 0.31 / 0.99,0.76,2 of 18 (2.65)
KRSQTVLYESRNKNSVA,MASTRES,QQYHRLPLS,Ctrl,2.41 / 1.25 / 1.79 / 1.66 / 1.50 / 1.72,1.72,1 of 18 (1.84)
KSSQSVLYDSRNKNSVA,AASTRES,QQYARLPLS,Ctrl,0.03 / 0.01 / 0.00 / -0.04 / -0.10 / 0.02,-0.01,0 of 18
KSSQAVLYEYRNKNSVA,WASTRES,QQYHRSPLS,Ctrl,n.d. / n.d. / n.d. / n.d. / n.d. / n.d.,n.d.,0 of 18

Background: pairings of all light chain designs with three empty control strains gave a value in 4% of cases (median 2.64, 5th percentile 1.59). Values in that range, when seen in few replicates, are hard to tell from nonspecific mating. For each scFv, signals with the empty controls are counted beside the result, with their mean in brackets.
Some sequences occur more than once in the pool; their replicates are listed entry by entry, parted by semicolons.
In the paper, a design with two or fewer of six values counts as a poor binder.
The range of this assay differs from that of the first round, and the authors advise against merging the two.

Reference: Li et al. 2023, doi:10.1038/s41467-023-39022-2. File: FLAb, binding data.